# Reference: patent publication US20160082109A1, “COPOLYMER AND NANOPARTICLES OBTAINED THEREFROM FOR DRUG DELIVERY” (FONDAZIONE ISTITUTO ITALIANO DI TECNOLOGIA, priority 2013, published 2016)
# Assay type: physicochemical
# Procedure: The tests were conducted on 2±0.3 mg of polymer, placed in polypropyplene vials filled with 1 ml of deionized H2O and kept in a thermostatic bath at 37° C. for 33 days. At regular intervals the samples were withdrawn, the degradation medium was separated for evaluation of the pH while the degraded polymers were dried in a ventilated stove at 50° C. for 3 h and then analysed by gel permeation chromatography (GPC).
# The pH measurements were conducted on the degradation means (deionized H2O) after pre-set times. In particular, the degradation means were withdrawn from the vials containing the polymer, prepared as reported in example 1, during the degradation tests in the previous example and the measurement was performed using a pH-meter on the samples just taken at a temperature of 37° C.
substance,measurement,value
polylactic-co-glycolic acid) [PLGA],pH of the degradation means (lower values / end of the test),approximately 4
